Test [1] deals with V79. Kind of test: Inhibitory activity was determined against V79 cell line in chinese hamster. The test is classed as functional, cell-based, Cricetulus griseus. An outline of the steps:
(§1)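 Aerobic growth inhibition of log-phase cells (parental NTR-negative lines). Cultures seeded 24 h before an 18 h drug exposure; cell density read 4–5 days later by sulforhodamine B staining. IC50 is the concentration giving 50% growth inhibition versus same-plate controls. Mean ± SEM of up to five independent experiments.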

Test [2] relates to EMT6. Kind of test: Inhibitory activity against EMT6 murine cell line. The test is classed as functional, cell-based, Mus musculus. The method, boiled down: as §1
In test [3] the test system is WiDr. Description: Inhibitory activity was determined against WiDr cell line in human. The test is classed as functional, cell-based. The method, boiled down: as §1
In test [4] the test system is SK-OV-3. Kind of test: Inhibitory activity was determined against SKOV3 cell line in human. The test is classed as functional, cell-based. The method, boiled down:
as §1

In general, IC50 refers to the concentration needed to halve the response being measured. Consider `Nc1ccc(N(CCCl)CCCl)cc1`, for which the IC50 in test [1] is 1.9 µM; in test [2] it was 1.06 µM; in test [3], 3.9 µM; in test [4] it was 3.74 µM.
